For two compounds, IC50 results are on record in ChEMBL document CHEMBL1125479, “Methoxytetrahydropyrans. A new series of selective and orally potent 5-lipoxygenase inhibitors” (J Med Chem, 1992).

In the assay the target is T1, Polyunsaturated fatty acid 5-lipoxygenase (Homo sapiens, UniProt P09917).
T1 sequence (P09917 whole entry): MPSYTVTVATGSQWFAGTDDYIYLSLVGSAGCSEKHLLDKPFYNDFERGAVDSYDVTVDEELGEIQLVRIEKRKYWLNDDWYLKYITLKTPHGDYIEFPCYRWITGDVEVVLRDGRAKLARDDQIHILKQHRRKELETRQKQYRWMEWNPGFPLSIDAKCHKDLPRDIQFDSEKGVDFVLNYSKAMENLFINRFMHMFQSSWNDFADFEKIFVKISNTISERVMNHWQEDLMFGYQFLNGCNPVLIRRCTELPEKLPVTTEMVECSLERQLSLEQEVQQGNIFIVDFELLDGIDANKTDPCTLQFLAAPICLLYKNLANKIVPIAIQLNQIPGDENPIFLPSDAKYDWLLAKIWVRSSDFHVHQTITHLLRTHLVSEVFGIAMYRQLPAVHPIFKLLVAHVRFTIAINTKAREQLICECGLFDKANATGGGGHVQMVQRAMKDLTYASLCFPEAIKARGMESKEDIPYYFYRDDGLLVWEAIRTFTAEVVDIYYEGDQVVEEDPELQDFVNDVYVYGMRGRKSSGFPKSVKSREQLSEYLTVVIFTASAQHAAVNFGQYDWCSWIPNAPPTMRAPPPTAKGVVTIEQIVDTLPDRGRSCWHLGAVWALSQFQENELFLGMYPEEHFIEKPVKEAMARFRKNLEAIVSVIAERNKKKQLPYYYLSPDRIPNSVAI
Description: In vitro inhibition of leukotriene B4 synthesis in human whole blood by inhibiting 5-lipoxygenase. Format: tissue-based. In outline:
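Heparinized human whole blood preincubated with compound, then stimulated with calcium ionophore A23187; LTB4 (5-LPO product) and TxB2 (cyclooxygenase product) generation measured.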

For the compound `COC(C)(c1nccs1)c1cc(OCc2ccc3ccccc3c2)ccc1C` (configuration not stated), half-maximal inhibition (IC50) required 40 µM.
In turn, `COC1(c2cc(F)cc(OCc3ccc4nccnc4c3)c2)CCOCC1` had an IC50 of 0.3 µM.

The term IC50 denotes the concentration that gives 50% inhibition. Low readings indicate higher potency, high ones lower potency.
